Assay results reported in US20040082598A1, “Compounds specific to adenosine A, receptors and uses thereof” (OSI Pharmaceuticals, Inc., priority 2000, published 2004).

The chains behind the UniProt entries cited, without tags or fusion partners.
UniProt P30542, whole entry: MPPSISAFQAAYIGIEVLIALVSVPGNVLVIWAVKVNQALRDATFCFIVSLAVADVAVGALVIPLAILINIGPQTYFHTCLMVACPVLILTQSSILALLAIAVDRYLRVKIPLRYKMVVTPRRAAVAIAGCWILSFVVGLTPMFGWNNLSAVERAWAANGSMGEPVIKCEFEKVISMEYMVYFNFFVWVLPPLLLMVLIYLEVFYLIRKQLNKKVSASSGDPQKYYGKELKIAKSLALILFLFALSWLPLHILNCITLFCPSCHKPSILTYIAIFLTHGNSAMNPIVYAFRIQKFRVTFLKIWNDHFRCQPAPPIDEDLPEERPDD

Molecular target: human A1 adenosine receptor (Homo sapiens, UniProt P30542)
Experiment: fus1-LacZ β-galactosidase assay, yeast expressing human A1 adenosine receptor
Format: cell-based
Design: yeast alpha-factor (Mfα1) prepro leader (N, cleaved yes); expressed in transfected cells; host or cells: Saccharomyces cerevisiae (strain CY12660 or related strains carrying plasmid p5095)
Conditions: NECA concentration of 10^−8 M

Q: With CCNC(=O)[C@H]1O[C@@H](n2cnc3c(N)ncnc32)[C@H](O)[C@@H]1O [NECA, 5′-N-ethylcarboxamidoadenosine] as the molecule, how does the “stimulation of β-galactosidase activity” value read?
A: approximately 2 fold
